## Apparent affinities of Ab-91 variants for a coronavirus HR2 peptide

Values reported by Engelhart et al. 2022, doi:10.1038/s41597-022-01779-4 (FLAb copy).

Target peptide (SARS-CoV-2 spike, HR2 region): PDVDLGDISGINAS

Each scFv is VL, the linker GGGGSGGGGSGGGGS, VH, as in the parent Ab-91, and differs from it in the CDRs of the heavy chain only.
VL: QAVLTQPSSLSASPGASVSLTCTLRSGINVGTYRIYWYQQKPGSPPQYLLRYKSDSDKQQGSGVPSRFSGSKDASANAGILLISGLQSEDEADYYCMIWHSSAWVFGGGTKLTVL
VH: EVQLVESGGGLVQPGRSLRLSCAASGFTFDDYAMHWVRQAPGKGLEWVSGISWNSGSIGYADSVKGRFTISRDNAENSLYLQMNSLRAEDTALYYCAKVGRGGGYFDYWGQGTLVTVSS

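The parent was found by panning a naive human phage display library on the peptide. Variants in AAYL51 differ from the parent at up to three CDR positions; double and triple changes were sampled at random. In AlphaSeq, yeast of one mating type display the scFv and yeast of the other type display the target. Mating (16 h, 30 °C) was followed by selection of diploids and sequencing of their barcodes. The ratio of observed to expected reads was calibrated, replicate by replicate, on BCL2-family standards whose Kd was known from biolayer interferometry. Each pool was mated in three replicate cultures.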

The parent's heavy chain CDRs are GFTFDDYAMH, GISWNSGSIGYADSVK, VGRGGGYFDY; each variant's own CDRs replace them letter for letter. Values are log10 of the apparent Kd in nM; lower means stronger binding. The mean shown is taken over the replicates in which the pair was detected. A pair that was not seen in any replicate is written "nd"; this usually means weak binding, but a binder can also be missed. Background: pairings of library AAYL51 with three empty control strains gave a value in 21% of cases (median 4.54, 5th percentile 3.26). Values in that range, when seen in few replicates, are hard to tell from nonspecific mating.

CDR-H1 | CDR-H2 | CDR-H3 | mean log10 Kd (nM) | seen in
LFTFDDYAMH | GMSWNRGSIGYADSVK | VGRGGGYFDY | nd | 0/3
GFTFDDYAMH | GILWNSGSIRYADSVK | VGRGGGYFDL | 3.69 | 1/3
GFTFIDYDMH | GCSWNSGSIGYADSVK | VGRGGGYFDY | nd | 0/3
GDTFDDYAMD | GISWNSGSIGYADHVK | VGRGGGYFDY | 4.80 | 3/3
GFTFDDYAMH | GISWNSGSIGYNDTPK | VGRGGGYFDY | nd | 0/3
SFTFDDYAMH | GISWNSGSIGYVDSVK | VGRGGAYFDY | 3.27 | 1/3
GFTFDDWALH | GISWNSGSIGYADSVK | VGRGGGYFDY | 4.69 | 1/3
GFTFDDYAMH | GISWESGKIGYADSVK | KGRGGGYFDY | nd | 0/3
GCTFDYYAMH | GISWNSGSIGYADSVK | VIRGGGYFDY | nd | 0/3
TFTFDDYAMH | GISWNSGSIGYALSVK | VGRGGGYFDY | nd | 0/3
GFTFDDYAMH | GQSWNLGQIGYADSVK | VGRGGGYFDY | nd | 0/3
GFTFDDYAMH | GISWNSGRIGYADSVK | VGRGGGYFYK | 3.60 | 1/3
GFTFDDYAMH | RASWNSGSIGYADSVK | VGRGGGYIDY | nd | 0/3
GFTFDDYAMH | GISWNWGSYGYADSVK | VGRGGGYDDY | 4.58 | 3/3
GFTFDDYLMH | GISWNSGSIGYADSVK | WGRGGGPFDY | 3.96 | 1/3
GFTFDDYAMH | GIFWNSGSIGLNDSVK | VGRGGGYFDY | 3.60 | 2/3
GFTFDDYAMH | GISWNSGSIGCADYVK | VGRKGGYFDY | nd | 0/3
YFTFDDYRMH | GISWNSGSIGYADSVK | VGRGGGRFDY | nd | 0/3
LFTFDDYAMW | GISWNSGSIGYADSVK | VGRGGCYFDY | 4.74 | 2/3
GATFCDYAMH | GISWNSGSIGYADSVK | VGRSGGYFDY | nd | 0/3
GFTFRDYAMH | GISWNSGSIGYADSVK | VGRGGCYFDK | nd | 0/3
GFTFDDYASH | GISWNSGSIGYADTVK | VGRGGYYFDY | 4.14 | 1/3
GFQFDDYAMH | GISWNSGSIGYADSVK | VGRGCGYFDY | 1.05 | 3/3
GFTFDDYAEH | GISWNRGSIGYADSVK | VGRGGGYFHY | 4.86 | 1/3
GFTFDDYADH | GISWNSGSIGYADSVE | VGRGGGYFDE | nd | 0/3
GFTFDDYAMH | GISWNSGSIGYAKGVK | VGRGGGYFDS | 3.44 | 1/3
GFNFDDYAMK | GISWNSGAIGYADSVK | VGRGGGYFDY | nd | 0/3
GFTFDDYAMH | WISWNSGSICYADSVK | VGRGGGYPDY | 3.88 | 1/3
GFTFADYAMH | GISWNSGSMGYADSVK | NGRGGGYFDY | nd | 0/3
GFTFDDYAMH | CISGNSGSIGYADSVK | VVRGGGYFDY | 4.05 | 1/3
HFTFDDYAMH | GWSWNSGSIGYADSVK | VGRGGGYEDY | 4.88 | 3/3
GFTKDDYAMH | GISWNSESIGYADFVK | VGRGGGYFDY | 4.14 | 1/3
GPTFDDYAMH | RISWNSGSIGYADSVK | HGRGGGYFDY | 4.89 | 2/3
GFTFDDYANH | GISWNSGTIGYADSVK | VGRGGGYFDY | 5.28 | 3/3
GFTFDDYAMH | GISWNSGSVGYADSVK | VGRGGGYFHW | 0.49 | 3/3
GFTGDDYMMH | GISWNSGSIGYADSVK | VGRVGGYFDY | nd | 0/3
GFTFDDYWMH | GISWNSGSIFYADSVK | VGRGGGYFEY | nd | 0/3
GFTFDVYAPH | GISWNSGSIGYADSVK | LGRGGGYFDY | 5.53 | 3/3
GWTFDLYAMH | GISWNSGSIGYAPSVK | VGRGGGYFDY | 4.94 | 2/3
GFTFDDSAMH | GISWNSGSYGYACSVK | VGRGGGYFDY | 3.07 | 2/3
GFTFDDYAMH | PISWNSGSIGQADVVK | VGRGGGYFDY | nd | 0/3
GFTFDDFAMH | GISWNSGVIGYADSVK | VGRGGGYFDY | nd | 0/3
GFTFDDYRMH | SISWNSGSILYADSVK | VGRGGGYFDY | 5.23 | 1/3
GFTFCDYAMH | GISWNSGSIGYADSVR | VGLGGGYFDY | 2.25 | 2/3
YFTFDDSAMH | GISWNSGSIGYADSVK | KGRGGGYFDY | 5.51 | 2/3
GFTFDDYAMH | GIKWNSGSIGYATSYK | VGRGGGYFDY | nd | 0/3
FFTFDDYAMH | GISANSGSIGYADSVK | VGRGGGYFDY | 5.01 | 2/3
GFTFSDYAMH | GISWCSGSIGYADSVK | VGRSGGYFDY | 5.03 | 3/3
GFTFDDYKMH | GISWNSGEIGYADSVK | VGRMGGYFDY | 1.74 | 3/3
PFCFDDYAMH | GISWNSGSIGYADSVK | VGQGGGYFDY | 4.00 | 2/3

From the list, the first 7 with no signal in any replicate:

CDR-H1,CDR-H2,CDR-H3,mean log10 Kd (nM),seen in
LFTFDDYAMH,GMSWNRGSIGYADSVK,VGRGGGYFDY,nd,0/3
GFTFIDYDMH,GCSWNSGSIGYADSVK,VGRGGGYFDY,nd,0/3
GFTFDDYAMH,GISWNSGSIGYNDTPK,VGRGGGYFDY,nd,0/3
GFTFDDYAMH,GISWESGKIGYADSVK,KGRGGGYFDY,nd,0/3
GCTFDYYAMH,GISWNSGSIGYADSVK,VIRGGGYFDY,nd,0/3
TFTFDDYAMH,GISWNSGSIGYALSVK,VGRGGGYFDY,nd,0/3
GFTFDDYAMH,GQSWNLGQIGYADSVK,VGRGGGYFDY,nd,0/3